Laboratory results as given in patent EP1135374B9, “BENZIMIDAZOLE COMPOUNDS THAT ARE VITRONECTIN RECEPTOR ANTAGONISTS” (SCHERING CORPORATION, priority 1998, dated 2000).

By UniProt entry, the sequences of proteins in these tests, tags left out. Residues count along the entry.
UniProt P05106, 27-788 limits assumed: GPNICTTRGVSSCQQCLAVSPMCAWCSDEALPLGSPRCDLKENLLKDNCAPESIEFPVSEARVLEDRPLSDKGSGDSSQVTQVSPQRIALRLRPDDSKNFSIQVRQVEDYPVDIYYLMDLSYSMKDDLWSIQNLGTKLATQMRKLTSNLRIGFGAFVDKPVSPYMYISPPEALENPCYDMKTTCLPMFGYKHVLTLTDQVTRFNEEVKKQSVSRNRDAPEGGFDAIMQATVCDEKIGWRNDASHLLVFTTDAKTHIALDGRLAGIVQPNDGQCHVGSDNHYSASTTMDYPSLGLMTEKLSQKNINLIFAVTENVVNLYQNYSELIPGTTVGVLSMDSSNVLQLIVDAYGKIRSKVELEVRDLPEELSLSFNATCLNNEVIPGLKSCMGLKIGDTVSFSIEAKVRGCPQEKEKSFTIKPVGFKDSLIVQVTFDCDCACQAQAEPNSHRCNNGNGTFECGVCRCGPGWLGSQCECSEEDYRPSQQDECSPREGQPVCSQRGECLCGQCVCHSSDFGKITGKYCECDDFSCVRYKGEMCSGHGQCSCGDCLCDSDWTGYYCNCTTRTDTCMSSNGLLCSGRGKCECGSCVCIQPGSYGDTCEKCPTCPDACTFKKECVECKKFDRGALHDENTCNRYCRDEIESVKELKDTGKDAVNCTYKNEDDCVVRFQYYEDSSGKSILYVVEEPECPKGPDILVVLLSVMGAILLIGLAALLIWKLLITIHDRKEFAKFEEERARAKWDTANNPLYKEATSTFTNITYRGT
UniProt P08514, 32-887 limits assumed: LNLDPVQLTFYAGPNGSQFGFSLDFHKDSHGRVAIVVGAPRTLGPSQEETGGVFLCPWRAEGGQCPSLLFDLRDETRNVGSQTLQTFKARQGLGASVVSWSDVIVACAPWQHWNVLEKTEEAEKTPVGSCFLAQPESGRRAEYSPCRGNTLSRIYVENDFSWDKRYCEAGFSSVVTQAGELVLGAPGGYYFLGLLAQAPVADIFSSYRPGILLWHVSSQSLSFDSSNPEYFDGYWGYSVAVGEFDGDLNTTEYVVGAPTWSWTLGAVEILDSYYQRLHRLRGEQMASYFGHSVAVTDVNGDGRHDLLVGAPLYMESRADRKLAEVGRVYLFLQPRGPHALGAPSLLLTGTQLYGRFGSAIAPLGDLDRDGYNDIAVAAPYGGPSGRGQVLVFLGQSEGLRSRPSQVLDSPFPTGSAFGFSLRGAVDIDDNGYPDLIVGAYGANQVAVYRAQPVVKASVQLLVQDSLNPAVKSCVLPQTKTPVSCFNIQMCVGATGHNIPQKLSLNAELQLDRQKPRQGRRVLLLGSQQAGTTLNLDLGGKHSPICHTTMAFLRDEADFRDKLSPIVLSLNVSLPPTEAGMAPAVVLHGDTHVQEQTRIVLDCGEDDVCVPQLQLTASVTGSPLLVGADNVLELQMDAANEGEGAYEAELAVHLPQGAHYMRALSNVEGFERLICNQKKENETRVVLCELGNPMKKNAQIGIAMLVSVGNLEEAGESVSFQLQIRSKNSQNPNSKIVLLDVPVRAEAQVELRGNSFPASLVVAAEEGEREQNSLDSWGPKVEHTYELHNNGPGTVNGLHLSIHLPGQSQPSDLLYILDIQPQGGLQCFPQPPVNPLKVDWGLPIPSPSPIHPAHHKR
UniProt P08514, 891-1039 partner limits assumed: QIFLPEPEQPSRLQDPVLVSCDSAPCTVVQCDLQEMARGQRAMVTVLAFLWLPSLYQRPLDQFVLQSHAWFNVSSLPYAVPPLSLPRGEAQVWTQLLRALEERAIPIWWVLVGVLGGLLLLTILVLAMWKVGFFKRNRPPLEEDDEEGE

Target: purified αllbβ3 receptor (Homo sapiens, UniProt P05106+P08514)
Assay: similar competitive binding assay with 125I-echistatin on αllbβ3 receptor, used for the specificity index
Settings: Table 10; specificity index IC50 αllbβ3/ IC50 αvβ3
Protocol: To measure the relative affinity of the test compounds for αvβ3 receptors versus affinity for αllbβ3 receptors, similar competitive assays were carried out using purified αllbβ3 receptor and ^125I-echistatin (iodinated using the lactoperoxidase method). The specificity index, which is a measure of the relative binding affinity for αvβ3, versus αllbβ3, may be determined by dividing the IC50 value for αllbβ3 by the IC50 value for αvβ3.

`CN(C)C(=O)N(Cc1ccc(C(=O)NC[C@H](NC(=O)OCc2ccccc2)C(=O)O)cc1)Cc1nc2ccccc2[nH]1` was tested. Which “SPECIFICITY αIIbβ3 / αvβ3” value did it give?
Its value is 19.

Which “SPECIFICITY αIIbβ3 / αvβ3” value does the source give for `CCCC(=O)N(Cc1ccc(C(=O)NC[C@H](NC(=O)OCc2ccccc2)C(=O)O)cc1)Cc1nc2ccccc2[nH]1` here?
Its value is 70.

With `O=C(N[C@@H](CNC(=O)c1ccc(CN(Cc2nc3ccccc3[nH]2)C(=O)C(F)(F)F)cc1)C(=O)O)OCc1ccccc1` as the compound, how does the “SPECIFICITY αIIbβ3 / αvβ3” value read?
Its value is 87.
